Values quoted from earlier work, collected in patent US20250177557A1, “METHODS OF PRODUCING MICROBUBBLE DRUG CONJUGATES, VIRAL GENE THERAPY MICROBUBBLE CONJUGATES AND TARGETED MICROBUBBLES” (priority 2022, published 2025).

Details: patients; cited from earlier work

For nivolumab, the “Incidence of grade 3 or -4 treatment-related AEs” value is given as 21%.
